Measured values reported in patent US7759499B2, “Compounds as inhibitors of hepatitis C virus NS3 serine protease” (Schering Corporation, priority 2004, dated 2010).

By UniProt entry, the sequences of proteins in these tests, tags left out. Residues count along the entry.
UniProt P27958, 1027-1657: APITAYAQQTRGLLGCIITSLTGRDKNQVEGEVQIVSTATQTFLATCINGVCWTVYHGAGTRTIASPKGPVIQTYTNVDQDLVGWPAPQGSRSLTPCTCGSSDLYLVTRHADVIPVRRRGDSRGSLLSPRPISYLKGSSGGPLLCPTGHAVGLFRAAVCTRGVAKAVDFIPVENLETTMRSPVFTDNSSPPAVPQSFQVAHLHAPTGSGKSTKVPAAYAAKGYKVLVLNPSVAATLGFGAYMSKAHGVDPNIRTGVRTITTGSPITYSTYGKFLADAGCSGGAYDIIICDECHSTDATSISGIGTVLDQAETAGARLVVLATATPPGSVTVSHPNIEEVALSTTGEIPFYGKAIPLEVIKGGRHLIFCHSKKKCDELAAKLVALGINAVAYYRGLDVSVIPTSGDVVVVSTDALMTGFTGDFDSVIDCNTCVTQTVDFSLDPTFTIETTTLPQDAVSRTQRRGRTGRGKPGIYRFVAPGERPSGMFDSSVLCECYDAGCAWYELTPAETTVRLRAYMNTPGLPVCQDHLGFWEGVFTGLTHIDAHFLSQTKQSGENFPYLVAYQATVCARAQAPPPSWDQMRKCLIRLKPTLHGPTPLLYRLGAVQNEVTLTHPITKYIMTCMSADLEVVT
UniProt P27958, 1658-1711: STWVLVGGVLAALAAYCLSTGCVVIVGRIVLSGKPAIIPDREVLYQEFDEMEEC

What follows are compounds tested against Recombinant heterodimeric HCV NS3/NS4A protease (strain 1a) (Hepatitis C virus genotype 1a, UniProt P27958) (assay: Spectrophotometric assay for HCV protease inhibitory activity). Details: Table 1, range.
Format: biochemical
For `C=CCNC(=O)C(=O)C(CC1CC1)NC(=O)[C@@H]1[C@@H]2[C@H](CN1C(=O)[C@@H](NC(=O)N[C@H](CN(C)S(=O)(=O)N(C)C(=O)OCc1ccccc1)C(C)(C)C)C(C)(C)C)C2(C)C` (some centres unmarked) [Compound 10063], the Ki was ≤ 75 nM.
With `C=CCNC(=O)C(=O)C(CC1CC1)NC(=O)[C@@H]1[C@@H]2[C@H](CN1C(=O)[C@@H](NC(=O)N[C@H](CN(C)S(=O)(=O)N(C)C1CC1)C(C)(C)C)C(C)(C)C)C2(C)C` (some centres unmarked) [Compound 10093] the Ki was ≤ 75 nM.
For `C=CCNC(=O)C(=O)C(CCC)NC(=O)[C@@H]1[C@@H]2[C@H](CN1C(=O)[C@@H](NC(=O)N[C@H](CN(C)S(=O)(=O)N(C)C)C1CCCCC1)C(C)(C)C)C2(C)C` (some centres unmarked) [Compound 10043], the Ki was ≤ 75 nM.

Same assay, conditions: Table 2, range
In the case of `CCCCC(NC(=O)[C@@H]1[C@@H]2[C@H](CN1C(=O)[C@@H](NC(=O)N[C@H](CN(C)S(=O)(=O)c1cccs1)C(C)(C)C)C1CCCC1)C2(C)C)C(=O)C(N)=O` (some centres unmarked) [Compound 11227], the Ki is reported as ≤ 75 nM.
In the case of `CN(C[C@@H](NC(=O)N[C@H](C(=O)N1C[C@H]2[C@@H]([C@H]1C(=O)NC(CC1CC1)C(=O)C(N)=O)C2(C)C)C(C)(C)C)C1CCCCC1)S(=O)(=O)c1cccs1` (some centres unmarked) [Compound 11157], the Ki is reported as ≤ 75 nM.
`C=CCNC(=O)C(=O)C(CC1CC1)NC(=O)[C@@H]1[C@@H]2[C@H](CN1C(=O)[C@@H](NC(=O)N[C@H](CN(C)S(=O)(=O)c1ccccc1)C(C)(C)C)C(C)(C)C)C2(C)C` (some centres unmarked) [Compound 11041] was tested, and the Ki was ≤ 75 nM.
`CCCC(NC(=O)[C@@H]1[C@@H]2[C@H](CN1C(=O)[C@@H](NC(=O)N[C@H](CN(C)S(C)(=O)=O)C(C)(C)C)C1(C)CCCCC1)C2(C)C)C(=O)C(=O)NC` (some centres unmarked) [Compound 11201] was tested, and the Ki was ≤ 75 nM.
`CC(C)N(C[C@@H](NC(=O)N[C@H](C(=O)N1C[C@H]2[C@@H]([C@H]1C(=O)NC(CC1CCC1)C(=O)C(N)=O)C2(C)C)C(C)(C)C)C(C)(C)C)S(C)(=O)=O` (some centres unmarked) [Compound 11183] was tested, and the Ki was ≤ 75 nM.
In the case of `C#CCCC(NC(=O)[C@@H]1C[C@@H](Cl)CN1C(=O)[C@@H](NC(=O)N[C@H](CN(C)S(C)(=O)=O)C(C)(C)C)C1CCCCC1)C(=O)C(=O)NCC=C` (some centres unmarked) [Compound 11165], the Ki is reported as ≤ 75 nM.
`C=CCNC(=O)C(=O)C(CC1CC1)NC(=O)[C@@H]1[C@H]2CC(C)(C)O[C@H]2CN1C(=O)[C@@H](NC(=O)N[C@H](CN(C)S(C)(=O)=O)C(C)(C)C)C1CCCCC1` (some centres unmarked) [Compound 11040] gave a Ki of 75 to 250 nM.
In the case of `C=CCNC(=O)C(=O)C(CCCC)NC(=O)[C@@H]1[C@@H]2[C@H](CN1C(=O)[C@@H](NC(=O)N[C@H](CN(C)S(=O)(=O)c1ccc(OC)cc1OC)C(C)(C)C)C(C)(C)C)C2(C)C` (some centres unmarked) [Compound 11325], the Ki is reported as ≤ 75 nM.
For `C=CCNC(=O)C(=O)C(CC1CC1)NC(=O)[C@@H]1[C@@H]2[C@H](CN1C(=O)[C@@H](NC(=O)N[C@H](CN(C)S(=O)(=O)C1CC1)C(C)(C)C)C(C)(C)C)C2(C)C` (some centres unmarked) [Compound 11034], the Ki was ≤ 75 nM.
`C=CCNC(=O)C(=O)C(CCC(F)(F)F)NC(=O)[C@@H]1[C@@H]2[C@H](CN1C(=O)[C@@H](NC(=O)N[C@H](CN(C)S(=O)(=O)CC)C(C)(C)C)C1(C)CCCCC1)C2(C)C` (some centres unmarked) [Compound 11328] was tested, and the Ki was ≤ 75 nM.

Same assay, conditions: Table 4, range
In the case of `C=CCNC(=O)C(=O)C(CCC(F)(F)F)NC(=O)[C@@H]1[C@@H]2[C@H](CN1C(=O)[C@@H](NC(=O)N[C@H](CN(C)C(C)=O)C(C)(C)C)C(C)(C)C)C2(C)C` (some centres unmarked) [Compound 13010], the Ki is reported as ≤ 75 nM.
For `C=CCNC(=O)C(=O)C(CCC)NC(=O)[C@@H]1[C@@H]2[C@H](CN1C(=O)[C@@H](NC(=O)N[C@H](CNC(=O)c1ccccc1)C(C)C)C(C)(C)C)C2(C)C` (some centres unmarked) [Compound 13008], the Ki was ≤ 75 nM.
`CN(C[C@@H](NC(=O)N[C@H](C(=O)N1C[C@H]2[C@@H]([C@H]1C(=O)NC(CC1CCC1)C(=O)C(N)=O)C2(C)C)C(C)(C)C)C(C)(C)C)C(=O)C(F)(F)F` (some centres unmarked) [Compound 13027] was tested, and the Ki was ≤ 75 nM.

Same assay, conditions: Table 5, range
`CC(C)[C@@H](CNC(=O)NC(C)(C)C)NC(=O)N[C@H](C(=O)N1C[C@H]2[C@@H]([C@H]1C(=O)NC(CC1CCC1)C(=O)C(N)=O)C2(C)C)C(C)(C)C` (some centres unmarked) [Compound 14059] was tested, and the Ki was ≤ 75 nM.
